Experimental data taken from patent US20160039778A1, “TRPV-1 RECEPTOR ANTAGONIST COMPOUND DERIVED FROM 1,3,4-THIADIAZOLE ALKYLAMIDES AND CHALCONES” (UNIVERSIDAD DE CONCEPCION, priority 2012, published 2016).

Protein sequences, listed by entry. Tags and fused reporters are not part of them.
UniProt O35433, whole entry: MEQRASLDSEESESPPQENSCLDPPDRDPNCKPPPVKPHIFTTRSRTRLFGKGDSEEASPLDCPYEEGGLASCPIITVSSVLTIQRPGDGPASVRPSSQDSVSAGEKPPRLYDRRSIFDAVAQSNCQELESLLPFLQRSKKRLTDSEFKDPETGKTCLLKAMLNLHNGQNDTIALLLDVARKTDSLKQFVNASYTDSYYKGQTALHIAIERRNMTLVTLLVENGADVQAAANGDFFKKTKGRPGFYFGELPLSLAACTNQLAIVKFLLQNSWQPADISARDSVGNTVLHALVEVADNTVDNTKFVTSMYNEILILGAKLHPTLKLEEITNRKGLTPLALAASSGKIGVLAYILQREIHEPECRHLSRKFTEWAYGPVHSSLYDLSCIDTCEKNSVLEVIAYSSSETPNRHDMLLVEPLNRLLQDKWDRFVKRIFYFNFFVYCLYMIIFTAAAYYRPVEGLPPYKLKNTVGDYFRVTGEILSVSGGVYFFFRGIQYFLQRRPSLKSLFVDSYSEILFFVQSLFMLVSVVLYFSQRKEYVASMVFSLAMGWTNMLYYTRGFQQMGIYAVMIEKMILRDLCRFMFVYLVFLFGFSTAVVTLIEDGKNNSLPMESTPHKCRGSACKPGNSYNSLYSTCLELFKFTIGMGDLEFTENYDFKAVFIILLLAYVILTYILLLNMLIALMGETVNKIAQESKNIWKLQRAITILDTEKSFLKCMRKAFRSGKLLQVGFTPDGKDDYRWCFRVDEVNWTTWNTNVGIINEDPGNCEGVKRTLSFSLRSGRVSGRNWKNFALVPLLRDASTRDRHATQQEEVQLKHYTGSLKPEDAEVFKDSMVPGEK

Biological target: T1, rat TRPV-1 receptor (Rattus norvegicus, UniProt O35433)
T1 construct: expressed in transfected cells; host or cells: HEK-293T
Experiment: Dose response curve, temperature activation of the TRPV-1 receptor in transfected HEK-293T cells
Assay type: cell-based
Settings: relative fluorescence at 50° C., HEK-293T cells transfected with rat TRPV-1, two independent experiments, ± standard deviation
Experimental: The synthesized compounds were evaluated in HEK-293T cell cultures transfected with cDNA from rat TRPV receptors. The compound activity was based on the capsaicin and temperature activation mechanism of the TRPV-1 receptor, which raised the levels of intracellular calcium as a consequence of the opening of the ionic channel of the receptor. The influx of calcium was measured with a fluorescent probe, Fluo 4-AM, as in the presence of an antagonist the calcium influx is blocked by the inactivation of the TRPV-1 receptor and cellular fluorescence decreases. […]
Once the rat TRPV-1 receptor had been transfected, Fluo-4 AM charged HEK 293T cells were plated out in 48-well plates at a cellular density of 50,000 cells per well, with a transfection percentage of 40-50%. […] The fluorescence measurements were then read on a real time PCR system that allows an increment of 1° C. every 35 seconds from 36° C. to 55° C. for compounds and from 22-56° C. for transfected cells in absence of compounds. Reading of the fluorescence measurement was done using a FAM filter (483-533nM). The fluorescence data were obtained for each temperature and each compound, and have been corrected subtracting the cellular background and the base line corresponding to the fluorescence at the start of the ramp (22 or 36° C.) for each sample. […]

Compound: CC(C)(C)c1ccc(NC(=O)N2CCN(c3ncccc3Cl)CC2)cc1 [BCTC, N-(4-tertiarybutylphenyl)-4-(3-cholorphyridin-2-yl)tetrahydropyrazine-1(2H)-carbox-amide]
- IC50 (1,3,4-thiadiazole alkylamide derivatives): 2.12 ± 0.354 nM
- IC50 (chalcone derivatives): 2.12 ± 0.354 nM
